Here are results for one compound from patent US8012984B2, “Substituted pyrazinone melanin concentrating hormone receptor-1 antagonists and methods” (Bristol-Myers Squibb Company, priority 2007, dated 2011).

Amino acid sequences for entries named in this document (tags omitted).
UniProt Q99705, whole entry E4Q/A5T: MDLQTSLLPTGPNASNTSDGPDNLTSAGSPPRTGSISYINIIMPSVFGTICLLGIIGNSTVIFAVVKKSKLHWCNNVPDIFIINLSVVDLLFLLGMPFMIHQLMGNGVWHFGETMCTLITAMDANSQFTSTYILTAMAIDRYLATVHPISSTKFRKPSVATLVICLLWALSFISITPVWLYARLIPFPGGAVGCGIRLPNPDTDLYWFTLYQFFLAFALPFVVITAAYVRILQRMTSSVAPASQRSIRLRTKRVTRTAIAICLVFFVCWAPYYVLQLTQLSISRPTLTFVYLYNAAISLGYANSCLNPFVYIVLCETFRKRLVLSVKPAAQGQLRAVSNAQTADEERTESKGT

Broadly, the Ki is the dissociation constant of the complex between target and ligand, obtained from inhibition or displacement. Higher therefore signals lower affinity.

This experiment concerns the target human melanin concentrating hormone receptor (MCHR1) (Homo sapiens, UniProt Q99705, A5T/E4Q). Description: Radioligand binding assay for assessment of MCHR1 activity. To be noted: membranes of HEK-293 cells expressing mutated hMCHR1; competition with [125I]-MCH. As for the experimental part:
Compounds of Formula I were initially characterized in an in vitro binding assay to determine their Ki or ability to antagonize binding of a peptide agonist to the human melanin concentrating hormone receptor (MCHR1).
Membranes from stably transfected HEK-293 cells expressing a mutated (E4Q, AST) hMCHR1 receptor were prepared by dounce homogenization and differential centrifugation. Binding experiments were carried out with 0.5-1.0 ug of membrane protein incubated in a total of 0.2 ml in 25 mM HEPES (pH 7.4) with 10 mM MgCl2, 2 mM EGTA, and 0.1% BSA (Binding Buffer) for 90 min. For competition binding assays, reactions were carried out in the presence of with 0.06-0.1 nM [Phe^n, [^125I]Tyr^19]-MCH and increasing concentrations of unlabeled test molecules. Reactions were terminated by rapid vacuum filtration over 96 well-GFC Unifilter plates pre-coated with 0.075 ml binding buffer containing 1% BSA, and washed 3 times with 0.4 ml of Phospho-buffered Saline (pH 7.4) containing 0.01% TX-100. Filters were dried; 0.05 ml microscint 20 was added to each well and radioactivity was subsequently quantified by scintillation counting on a TopCount™ microplate scintillation counter (Packard). Inhibitory constants were determined by nonlinear least squares analysis using a four parameter logistic equation.

For `Cc1cc(OCC(C)(C)O)nc2ccc(-n3ccnc(Sc4ccc(C(F)(F)F)cc4)c3=O)cc12`, the inhibitory constant (Ki) amounted to 21 nM.
